Like-named read-outs stand apart in the source and are kept apart here.
Columns and labels:
VC1:IIC2 = VC1:IIC2 (UniProt P26769+P30803); test: Inhibition of the catalytic activity of purified VC1:IIC2; assay type: biochemical, mammalian
AC5 [1] = target: T1, AC5 (Canis lupus familiaris, UniProt P30803); test: AC activity assay in Sf9 membranes expressing recombinant AC5; assay type: biochemical, mammalian; details: for Ki: read-out: AC5 Ki, Sf9 membranes, 5 mM MnCl2, 100 μM FS, mean ± SD
AC2 = target: T2, AC2 (Rattus norvegicus, UniProt P26769); details: read-out: AC2 Ki; Sf9 membranes, 5 mM MnCl2, 100 μM FS; mean ± SD; cited from earlier work
T2 sequence (P26769 1-1090): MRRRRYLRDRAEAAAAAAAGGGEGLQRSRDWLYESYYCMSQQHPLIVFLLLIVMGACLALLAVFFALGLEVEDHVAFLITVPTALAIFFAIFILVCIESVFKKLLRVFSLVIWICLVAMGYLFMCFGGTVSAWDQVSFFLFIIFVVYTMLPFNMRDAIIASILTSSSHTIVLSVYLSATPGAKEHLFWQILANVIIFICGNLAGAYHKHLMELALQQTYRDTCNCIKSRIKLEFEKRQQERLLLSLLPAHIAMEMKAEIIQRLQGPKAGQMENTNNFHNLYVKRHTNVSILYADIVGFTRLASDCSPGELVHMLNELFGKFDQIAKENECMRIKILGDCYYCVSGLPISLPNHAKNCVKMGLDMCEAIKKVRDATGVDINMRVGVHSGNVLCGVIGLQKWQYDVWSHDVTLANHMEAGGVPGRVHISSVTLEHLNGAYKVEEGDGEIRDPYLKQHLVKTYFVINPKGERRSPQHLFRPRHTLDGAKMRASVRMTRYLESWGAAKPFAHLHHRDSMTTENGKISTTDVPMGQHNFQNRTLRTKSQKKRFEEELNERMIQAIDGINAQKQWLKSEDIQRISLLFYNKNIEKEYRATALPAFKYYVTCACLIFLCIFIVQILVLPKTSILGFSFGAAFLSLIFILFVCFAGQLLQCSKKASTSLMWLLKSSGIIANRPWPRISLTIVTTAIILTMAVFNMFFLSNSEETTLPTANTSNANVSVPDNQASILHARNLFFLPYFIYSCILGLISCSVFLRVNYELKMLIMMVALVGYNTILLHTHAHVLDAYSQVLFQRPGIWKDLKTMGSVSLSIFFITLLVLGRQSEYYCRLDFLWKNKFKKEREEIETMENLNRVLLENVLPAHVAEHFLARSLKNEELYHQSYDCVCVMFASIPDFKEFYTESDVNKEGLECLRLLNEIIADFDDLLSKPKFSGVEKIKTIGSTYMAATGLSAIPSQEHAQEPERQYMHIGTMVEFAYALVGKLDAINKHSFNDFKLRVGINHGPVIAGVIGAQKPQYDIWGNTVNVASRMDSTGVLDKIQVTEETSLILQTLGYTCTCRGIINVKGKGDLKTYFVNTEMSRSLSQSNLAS

The chains behind the UniProt entries cited, without tags or fusion partners. Residues count along the entry.
UniProt P30803, 398-765 limits assumed: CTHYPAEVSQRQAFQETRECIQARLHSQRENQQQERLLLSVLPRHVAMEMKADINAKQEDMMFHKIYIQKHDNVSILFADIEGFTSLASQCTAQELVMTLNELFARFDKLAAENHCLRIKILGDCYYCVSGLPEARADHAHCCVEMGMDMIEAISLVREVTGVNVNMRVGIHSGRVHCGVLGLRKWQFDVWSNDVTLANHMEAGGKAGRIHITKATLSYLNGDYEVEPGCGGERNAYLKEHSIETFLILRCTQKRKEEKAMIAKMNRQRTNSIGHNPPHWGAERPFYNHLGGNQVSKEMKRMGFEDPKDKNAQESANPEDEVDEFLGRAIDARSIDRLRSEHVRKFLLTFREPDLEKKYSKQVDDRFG

AC5 [2] = target: T1, AC5; details: read-out: AC5 Ki; Sf9 membranes, 5 mM MnCl2, 100 μM FS; mean ± SD; cited from earlier work
[3] = read-out: VC1:IIC2 Mn2+ + FS + Gsα-GTPγS Ki
[4] = read-out: VC1:IIC2 Mn2+ + FS Ki

| Molecule | Ki (VC1:IIC2; [3]) [nM] | Ki (VC1:IIC2; [4]) [nM] | Ki (AC5 [1]) [nM] | Fold decrease in affinity for AC5 relative to guanine (1) (AC5 [1]; AC5) | Ki (AC2) [nM] | Ki (AC5 [2]) [nM] | Ki (VC1:IIC2; VC1:IIC2 Mn2+ + FS + Gsα-GTPγS Ki, maximally stimulated: 10 mM MnCl2, 100 μM FS, Gsα-GTPγS, 100 μM ATP, mean ± SD) [nM] |
| --- | --- | --- | --- | --- | --- | --- | --- |
| 2’,3’-O-anthraniloyl-adenosine 5’-diphosphate [compound 15] | 250 ± 12 | 21000 | 640 ± 70 |  |  |  |  |
| 2’,3’-O-(N-methylanthraniloyl)-adenosine 5’-triphosphate [compound 5] | 16 ± 6.4 | 100 ± 27 |  | 2-3 fold | 330 ± 80 | 100 ± 30 |  |
| CNc1ccccc1C(=O)O[C@H]1C[C@H](n2cnc3c(=O)[nH]c(N)nc32)O[C@@H]1COP(=O)(O)OP(=O)(O)OP(=O)(O)O [compound 2, 2’-deoxy-3’-O-(N-methylanthraniloyl)-guanosine 5’-triphosphate] |  |  |  |  |  |  | 180 ± 6.1 |
| 2’,3’-O-anthraniloyl-adenosine 5’-triphosphate [compound 14] | 17 ± 2.4 | 180 ± 57 | 120 ± 20 |  |  |  |  |
